The assay has as its target Aβ40 (amyloid-β; oligomers and fibrils) (Homo sapiens, UniProt P05067). As to the kind of experiment: fluorescence turn-on binding with Aβ[…] oligomers/fibrils ([…]).

Amino acid sequences for entries named in this document (tags omitted). Residues count along the entry.
UniProt P05067, 672-711 limits assumed: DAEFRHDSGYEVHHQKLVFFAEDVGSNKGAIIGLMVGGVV

The record followed here is PMC12291143.

Usually Kd stands for the constant that tells how readily two partners part at equilibrium. A low value points to tighter binding. With `CCCC(CCC)C(=O)OCC(=C1N=C(/C=C/c2ccc(N(c3ccccc3)c3ccccc3)cc2)OC1=O)c1ccc([N+](=O)[O-])cc1`, the Kd is 478 nM.
